For test [1], the target named is recombinant human cGAS (aa147-522) (Homo sapiens, UniProt Q8N884). The test is described as follows: In vitro inhibition assay of cGAS activity (ATP consumption, KinaseGlo Max). The test is classed as biochemical. The protocol:
Expression and Purification of Recombinant cGAS Protein: cDNA encoding full-length or amino acids […] of human cGAS was inserted into a modified pET28a vector containing an in-frame His6-SUMO tag. The E. coli strain BL21/pLys harboring the plasmid was induced with 0.5 mM IPTG at 18° C. overnight. His6-SUMO tag was removed by a SUMO protease digestion following purification of the His6-SUMO-cGAS as described previously (Sun et al, 2013, Science 339, 786).
In vitro inhibition assay of cGAS activity: A 60 μL mixture containing 20 mM Tris-Cl, pH 7.5, 5 mM MgCl2, 0.2 mg/mL BSA, 0.01 mg/mL Herring testis DNA, 6.6 μM ATP, 0.1 mM GTP, 1.5 μg/mL of recombinant human cGAS (aa147-522) and serial dilutions of a test compound in DMSO was added to a 96-well plate and incubated at 37° C. for 20 minutes. At the end of reaction, 40 μL of KinaseGlo Max (Promega) was added and chemiluminescence was measured with a luminometer. Inhibitory effect of a compound is evaluated by plotting percentage of ATP consumption against logarithm of compound concentrations. IC50 value was calculated using GraphPad Prism 8 (GraphPad Software, Inc.).
The letter codes for cGAS IC50 include: A (<2 μM); B (2-30 μM); C (>30 μM).

Sequences of proteins named here, by UniProt entry; tags and fusion partners are left off. Residues count along the entry.
UniProt Q8N884, 147-522 limits assumed: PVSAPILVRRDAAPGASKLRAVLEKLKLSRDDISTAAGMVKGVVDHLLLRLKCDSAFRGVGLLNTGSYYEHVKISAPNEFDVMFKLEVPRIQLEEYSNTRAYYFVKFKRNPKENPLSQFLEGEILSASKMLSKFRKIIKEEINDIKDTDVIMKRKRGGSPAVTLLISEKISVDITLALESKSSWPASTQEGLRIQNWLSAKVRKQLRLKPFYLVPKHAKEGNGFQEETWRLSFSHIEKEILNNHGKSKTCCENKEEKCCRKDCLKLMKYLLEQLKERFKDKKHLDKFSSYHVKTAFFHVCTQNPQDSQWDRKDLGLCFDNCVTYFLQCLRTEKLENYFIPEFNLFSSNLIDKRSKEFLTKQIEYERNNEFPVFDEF

Test [2] concerns cGAS activity in Reporter THP1 cell line. In words: Cellular assay to measure cGAS activity: ISRE-Gaussia luciferase reporter THP1 cells transfected with ISD. Here is the method: Cellular assay to measure cGAS activity: Reporter THP1 cell line harboring a gene encoding Gaussia Luciferase under the control of 5 tandem repeats of interferon-stimulated response elements (ISRE) fused to an ISG54 minimal promoter was used to test inhibition of cGAS activity by synthetic compounds in human cells. These cells were plated on 96-well plates at 0.3×10^6/well and incubated with serial dilutions of compounds or DMSO for 5 min, followed by transfection of 2 μg/mL of ISD (Interferon Stimulatory DNA, a 45 bp DNA oligo) or mock transfected using lipofectamine 2000 (Life Technology) method, according to manufacturer's instructions. 16 hours later, 15 μL of the media from each well was transferred to a new plate, 50 μL of solution containing 50 mM Hepes-NaOH, pH 6.5, 50 mM NaCl, 10 mM EDTA, 1 μM of coelenterazine was added to each well and luminescence was measured immediately. Fold increase in luminescence compared to mock transfection was plotted against concentrations of each compound, and IC50 is calculated using Graphpad. To evaluate the specificity of a compound, the same procedure was performed except that cells were transfected with 2 μg/mL poly(I:C) or infected with Sendai Virus (SeV) at 50 Unit/mL, which are known to activate the RIG-I-MAVS pathway. […]
A general note: Reporter assays use an easily measured gene product as a stand-in for the process of interest.

Read-outs that look alike come from different tables or passages of the source. Bounds are passed on as bounds.

As to `COC(=O)[C@@H]1[C@H](COCCC(=O)O)CCN1c1cc(-n2ccnc2)c2ccc(Cl)c(Cl)c2n1` (relative stereo), the IC50 is < 2000 nM in test [1] (read-out: cGAS Inhibition Results IC50, Table 3, tested form: TFA) and > 10000 nM in test [2] (read-out: Cellular Assay Results IC50, untitled table after Table 4 (continuation), tested form: TFA).

With `O=C(O)c1cccc(OCCNc2cc(-n3ccnc3)c3ccc(Cl)c(Cl)c3n2)c1`, the 50% inhibitory concentration (IC50) in test [1] (read-out: cGAS Inhibition Results IC50, Table 3) was < 2000 nM; in test [2] (read-out: Cellular Assay Results IC50, untitled table after Table 4 (continuation)), 2000 to 10000 nM.

The term IC50 denotes the concentration at which inhibition is half-maximal.

Values taken from patent US11873291B2, “Quinoline cGAS antagonist compounds” (ImmuneSensor Therapeutics, Inc., priority 2020, dated 2024).
